≈ marks a conversion by molar mass, not a printed value.
Each compound was assayed on Fluoroquinolone Sensitive Strains (assay: In-vitro antimicrobial test, MIC by two-fold serial agar dilution (NCCLS): fluoroquinolone sensitive strains (Table 17)).
Type: cell-based

SMILES | MIC, P. aeruginosa 27853
COc1c(N2CCC(N)C(C)(C)C2)c(F)cc2c(=O)c(C(=O)O)cn(C3CC3)c12 (racemic) [Compound 18, (±)-1-Cyclopropyl-6-fluoro-1,4-dihydro-8-mehtoxy-7-(4-amino-3,3-dimethyl-1-piperidinyl)-4-oxo-quinoline-3-carboxylic acid] | 6.25 mg/L (≈ 15.5 µM)
COc1c(N2CCC(N)C(C)(C)C2)c(F)cc2c(=O)c(C(=O)O)cn(C3CC3)c12 (single isomer, unassigned; (+)) [Compound 19, (+)-1-Cyclopropyl-6-fluoro-1,4-dihydro-8-mehtoxy-7-(4-amino-3,3-dimethyl-1-piperidinyl)-4-oxo-quinoline-3-carboxylic acid] | 6.25 mg/L (≈ 15.5 µM)
COc1c(N2CCC(N)C(C)(C)C2)c(F)cc2c(=O)c(C(=O)O)cn(C3CC3)c12 (single isomer, unassigned; (-)) [Compound 20, (−)-1-Cyclopropyl-6-fluoro-1,4-dihydro-8-mehtoxy-7-(4-amino-3,3-dimethyl-1-piperidinyl)-4-oxo-quinoline-3-carboxylic acid] | 6.25 mg/L (≈ 15.5 µM)

— US6964966B2 (dated 2005)
